# AlphaSeq binding of Ab-14 heavy chain variants to a spike HR2 peptide

Values reported by Li et al. 2023, doi:10.1038/s41467-023-39022-2 (FLAb copy).

Antigen: PDVDLGDISGINAS, a 14-residue peptide of the SARS-CoV-2 spike HR2 region.

Ab-14 is the parent antibody, in scFv form: VH, then a 15-residue (Gly4Ser)3 linker, then VL. The light chain is unchanged in all variants.
VH: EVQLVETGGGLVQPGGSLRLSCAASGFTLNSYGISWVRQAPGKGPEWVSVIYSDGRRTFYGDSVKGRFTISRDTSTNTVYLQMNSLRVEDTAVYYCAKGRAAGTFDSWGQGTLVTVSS
VL: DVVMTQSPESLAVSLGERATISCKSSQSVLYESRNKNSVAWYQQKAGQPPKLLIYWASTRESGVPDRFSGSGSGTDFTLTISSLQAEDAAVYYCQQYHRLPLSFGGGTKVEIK

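Designed CDR sequences, proposed from the first random library and measured here. Their group label is 14H_GPLM_Gen (GPLM: also part of the Gaussian process libraries; Gen: genetic algorithm; a sequence that several methods proposed may carry one label only). The assay is AlphaSeq: two haploid yeast populations carry antibody and antigen on their surface. After mating in shaken culture at 30 °C for 16 h, diploids were selected and their barcode pairs sequenced. The ratio of observed to expected reads was calibrated, replicate by replicate, on BCL2-family standards whose Kd was known from biolayer interferometry. Mating was done six times.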

Variants are written as CDR1, CDR2 and CDR3 of the heavy chain (limits as in the source). Parent: GFTLNSYGIS, VIYSDGRRTFYGDSVK, GRAAGTFDS.
Numbers give log10(Kd / nM), so 0 is 1 nM and 3 is 1 µM. Smaller is tighter.
Where no diploid with the target was found in that replicate, the entry reads "ND": below detection, most likely a poor binder, though not proof of it.
The range of this assay differs from that of the first round, and the authors advise against merging the two.
Empty control strains, which show no peptide, gave a signal in 1% of pairings with all heavy chain designs; the median was 2.08 and 95% of these signals were weaker than 0.84. No background was subtracted. Also given: how often the same scFv was detected with the empty control strains, with their mean in brackets.
The authors' rule: three or more of the six replicates give a measured affinity, fewer mean a poor binder.

| # | CDR-H1 | CDR-H2 | CDR-H3 | replicates, log10 nM | control signals |
|---|---|---|---|---|---|
| 1 | GFTLNSYGIS | VIYSDGVRTFYSDSVK | GDAAGTFDS | 0.41 / 0.02 / 0.19 / 0.29 / 0.48 / 0.60 | 0 of 18 |
| 2 | HFNLNSYGIS | VIYSDGRRTFYADSVK | GQAAGTFDS | 1.48 / 1.24 / 1.38 / 1.31 / 1.37 / 1.46 | 0 of 18 |
| 3 | GFTLNDYGIS | VIYSDGRRTFYGDSVK | GRIAGTFDS | 0.48 / 0.00 / -0.06 / 0.03 / 0.02 / -0.02 | 0 of 18 |
| 4 | GFTLNEYGIS | VIYSDGRRTFYGDSVK | GRVAGTFDK | 0.32 / 0.33 / 0.78 / 0.29 / 0.11 / 0.05 | 0 of 18 |
| 5 | GFHLNSYGIS | VIYSDGKRTFYGDSVK | GRTAGTFDS | 0.93 / 1.04 / 1.26 / 0.13 / ND / 0.67 | 0 of 18 |
| 6 | GFTLNSYGIS | VIYADGRRTFYGDSVK | GRVAGTFDM | 0.56 / 0.49 / 0.17 / 0.11 / 0.20 / 0.32 | 0 of 18 |
| 7 | GFSLNKYGIS | VIYSDGRRTFYGDSVK | GRQAGTFDS | 1.90 / 1.53 / 1.70 / 0.79 / ND / 1.74 | 1 of 18 (2.26) |
| 8 | GFTLNSYGIS | VIYADGRRTFYGDSVK | GQAAGTFDK | 0.98 / 0.52 / 0.39 / 1.88 / -0.08 / 1.05 | 0 of 18 |
| 9 | GFELNEYGIS | VIYSDGRRTFYGDSVK | GQAAGTFDT | -0.11 / 0.96 / 0.23 / 0.07 / 0.03 / 0.40 | 0 of 18 |
| 10 | SFSLNEYGIS | VIYSDGRRTFYGDSVK | GRTAGTFDS | ND / 1.15 / ND / ND / ND / 1.59 | 0 of 18 |
| 11 | GFELNDYGIS | VIYSDGRRTFYADSVK | GRTAGTFDS | 0.35 / 0.12 / -0.14 / -0.29 / -0.31 / -0.16 | 0 of 18 |
| 12 | GFELNSYGIS | VIYSDGRRTFYVDSVK | GQAAGTFDS | ND / 2.45 / 0.84 / 1.17 / 1.09 / ND | 0 of 18 |
| 13 | GFSLNHYGIS | VIYSDGRRTFYGDSVK | GRTAGTFDS | 0.92 / 0.90 / 0.52 / 0.41 / 0.71 / 0.80 | 0 of 18 |
| 14 | GFTLDSYGIS | VIYSDGRRTFYSDSVK | GEAAGTFDS | ND / ND / 1.97 / ND / ND / ND | 0 of 18 |
| 15 | GFGLNDYGIS | VIYSDGRRTFYSDSVK | GRTAGTFDS | 0.09 / -0.28 / -0.40 / -0.28 / -0.09 / -0.21 | 0 of 18 |
| 16 | GFSLNSYGIS | VIYSDGRRTFYGDSVK | GKAAGTFDT | 1.26 / 0.93 / 1.02 / 0.57 / 0.94 / 1.32 | 1 of 18 (2.54) |
| 17 | GFTLNSYGIS | VIYSDGRRTFYADSVK | GKAAGTFDS | 0.36 / -0.26 / 0.41 / 0.03 / 0.37 / 1.83 | 0 of 18 |
| 18 | GFTLNSYGIS | VIYSDGRRTFYGDSVK | GRLAGTFDT | ND / ND / ND / ND / ND / ND | 0 of 18 |
| 19 | GFTLNSYGIS | VIYSDGRRTFYADSVK | GQTAGTFDK | 1.22 / 0.97 / 0.77 / 0.39 / 0.74 / 1.07 | 0 of 18 |
| 20 | GFSLNEYGIS | VIYSDGRRTFYGDSVK | GRWAGTFDS | 0.43 / 0.25 / 0.17 / 0.17 / 0.26 / 0.11 | 1 of 18 (3.33) |
| 21 | GFQLNSYGIS | VIYSDGRRTFYGDSVK | GRQAGTFDS | ND / ND / 0.99 / 2.18 / 0.92 / 1.50 | 0 of 18 |
| 22 | GFSLNSYGIS | VIYSDGRRTFYRDSVK | GQTAGTFDS | 0.59 / 0.52 / 0.24 / 0.41 / 0.80 / 0.46 | 1 of 18 (2.49) |
| 23 | GFWLNEYGIS | VIYSDGRRTFYGDSVK | GRIAGTFDS | ND / ND / ND / ND / ND / ND | 0 of 18 |
| 24 | GFSLNSYGIS | VIYADGRRTFYGDSVK | GTAAGTFDS | -0.38 / -0.52 / -0.62 / -0.62 / -0.25 / -0.42 | 0 of 18 |
| 25 | GFSLNDYGIS | VIYSDGRRTFYGDSVK | GRTAGTFDN | 0.20 / -0.02 / -0.15 / -0.35 / -0.08 / -0.24 | 0 of 18 |
| 26 | GFTLNDYGIS | VIYSDGRRTFYKDSVK | GRTAGTFDS | -0.08 / 0.01 / -0.17 / 0.09 / 0.04 / 0.03 | 0 of 18 |
| 27 | GFTLNSYGIS | VIYSDGRRTFYADSVK | GRTAGTFWS | ND / ND / ND / 0.11 / -0.55 / -0.41 | 0 of 18 |
| 28 | GFSLNSYGIS | VIYSDGRRTFYQDSVK | GRTAGTFDS | ND / ND / ND / ND / 0.83 / 0.77 | 0 of 18 |
| 29 | GFSLNQYGIS | VIYSDGRRTFYGDSVK | GRAAGTFDS | ND / ND / ND / ND / 0.20 / 0.45 | 1 of 18 (1.21) |
| 30 | GFSLNSYGIS | VIYSDGRRTFYVDSVK | GEAAGTFDS | 1.72 / 0.65 / 0.90 / 1.05 / 1.64 / 1.22 | 0 of 18 |
| 31 | GFSLNSYGIS | VIYSDGRRTFYADSVK | GKQAGTFDS | 0.10 / -0.21 / -0.53 / -0.42 / -0.44 / 0.18 | 1 of 18 (1.14) |
| 32 | GFTLDSYGIS | VIYSDGRRTFYADSVK | GRVAGTFDT | 0.19 / 0.21 / -0.06 / 0.01 / -0.03 / 0.24 | 0 of 18 |
| 33 | GFQLNSYGIS | VIYSDGRRTFYADSVK | GQVAGTFDS | 0.09 / -0.16 / -0.25 / -0.55 / 0.04 / 0.57 | 0 of 18 |
| 34 | GFELNSYGIS | VIYSDGRRTFYADSVK | GRNAGTFDS | 1.10 / 0.67 / 0.61 / 0.36 / 0.90 / 0.50 | 0 of 18 |
| 35 | GFSLNAYGIS | VIYSDGRRTFYGDSVK | GRTAGTFDS | 1.08 / 0.52 / 0.25 / 0.41 / 0.48 / 1.06 | 0 of 18 |
| 36 | GFSLNSYGIS | VIYSDGRRTFYSDSVK | GEAAGTFDK | 0.16 / 0.38 / 0.15 / 0.27 / 0.31 / 0.40 | 0 of 18 |
| 37 | GFSLNSYGIS | VIYSDGRRTFYIDSVK | GRSAGTFDS | ND / ND / ND / ND / ND / ND | 0 of 18 |
| 38 | GFSLNSYGIS | VIYSDGRRTAYMDSVK | GRAAGTFDS | 0.35 / 0.29 / 0.05 / -0.11 / 0.07 / 0.22 | 2 of 18 (3.33) |
| 39 | GFTLNEYGIS | VIYSDGRRTFYGDSVK | GKAAGTFDT | 0.43 / 0.62 / ND / 0.22 / 0.40 / 0.82 | 0 of 18 |
| 40 | GFTLNSYGIS | VIYADGRRTFYGDQVK | GKAAGTFDS | 0.62 / 0.63 / 0.76 / 0.49 / 0.58 / 0.91 | 0 of 18 |
| 41 | GFTLNSYGIS | VIYSDGRRTFYIDSVK | GHAAGTFDS | 0.50 / 0.79 / 0.59 / 1.32 / 0.79 / 0.68 | 1 of 18 (2.75) |
| 42 | GFSLNSYGIS | VIYSDGRRTFYADNVK | GREAGTFDS | -0.32 / -0.53 / -0.43 / -0.41 / -0.49 / -0.43 | 0 of 18 |
| 43 | GFELNSYGIS | VIYSDGRRTFYIDSVK | GQAAGTFDS | ND / ND / ND / ND / ND / ND | 0 of 18 |
| 44 | GFNLNSYGIS | VIYSDGRRTFYHDSVK | GRTAGTFDS | 0.83 / 0.62 / 0.40 / 0.45 / 0.36 / 0.34 | 0 of 18 |
| 45 | GFTLNSYGIS | VIYSDGQRTFYADSVK | GRAAGTFDS | 0.48 / 0.53 / 0.78 / 0.90 / 0.31 / 0.33 | 0 of 18 |
| 46 | GFSLNDYGIS | VIYSDGRRTFYKDSVK | GRTAGTFDS | ND / 1.09 / 0.22 / 0.48 / 0.10 / 0.35 | 1 of 18 (0.78) |
| 47 | GFELNSYGIS | VIYSDGRRTFYADSVK | GDAAGTFDS | 0.75 / 0.51 / 0.42 / 0.47 / 0.42 / 0.26 | 0 of 18 |
| 48 | GFTLNSYGIS | VIYADGRRTFYGDSVK | GQAAGTFDT | 0.26 / -0.17 / -0.30 / -0.23 / -0.19 / -0.13 | 1 of 18 (1.23) |
| 49 | GFSLNSYGIS | VIYSDGRRTFYGDSVK | GKAAGTFDR | 0.97 / 1.31 / 1.41 / 1.45 / 2.44 / 3.00 | 0 of 18 |
| 50 | GFSLNSYGIS | VIYSDGRRTFYDDSVK | GQVAGTFDS | 0.34 / 0.13 / 0.15 / 0.34 / 0.35 / 0.39 | 1 of 18 (2.05) |
| 51 | GFTLESYGIS | VIYSDGRRTFYADDVK | GRAAGTFDS | ND / ND / ND / 2.74 / ND / ND | 0 of 18 |
| 52 | GFTLNEYGIS | VIYSDGRRTFYGDSVK | GRAAGTFDV | 0.66 / 0.83 / 0.26 / 0.16 / 0.32 / 0.67 | 0 of 18 |

The opening 7 entries, copied out:

CDR-H1,CDR-H2,CDR-H3,"replicates, log10 nM",control signals
GFTLNSYGIS,VIYSDGVRTFYSDSVK,GDAAGTFDS,0.41 / 0.02 / 0.19 / 0.29 / 0.48 / 0.60,0 of 18
HFNLNSYGIS,VIYSDGRRTFYADSVK,GQAAGTFDS,1.48 / 1.24 / 1.38 / 1.31 / 1.37 / 1.46,0 of 18
GFTLNDYGIS,VIYSDGRRTFYGDSVK,GRIAGTFDS,0.48 / 0.00 / -0.06 / 0.03 / 0.02 / -0.02,0 of 18
GFTLNEYGIS,VIYSDGRRTFYGDSVK,GRVAGTFDK,0.32 / 0.33 / 0.78 / 0.29 / 0.11 / 0.05,0 of 18
GFHLNSYGIS,VIYSDGKRTFYGDSVK,GRTAGTFDS,0.93 / 1.04 / 1.26 / 0.13 / ND / 0.67,0 of 18
GFTLNSYGIS,VIYADGRRTFYGDSVK,GRVAGTFDM,0.56 / 0.49 / 0.17 / 0.11 / 0.20 / 0.32,0 of 18
GFSLNKYGIS,VIYSDGRRTFYGDSVK,GRQAGTFDS,1.90 / 1.53 / 1.70 / 0.79 / ND / 1.74,1 of 18 (2.26)